# Literature values in paper PMC7848973, “In Vivo Efficacy and Metabolism of the Antimalarial Cycleanine and Improved In Vitro Antiplasmodial Activity of Semisynthetic Analogues” (Antimicrobial Agents and Chemotherapy, 2021).
# Conditions: in vitro, rat hepatic system; cited from earlier work
substance,measurement,value
N-desmethyl isotetrandrine,Metabolite produced from isotetrandrine,16%
